We go through one molecule from patent publication US7432303B2, “Chalcone and its analogs as agents for the inhibition of angiogenesis and related disease states” (James and Emory University, priority 1999, dated 2008).

The structures appear in SMILES notation.

For this assay, the system named is SVR cells. Kind of assay: SVR cell assay: cell numbers counted at 48 hours, percent inhibition versus control. The following applies: Mus musculus. The assay is classed as cell-based, murine.

As to `O=C(CCc1ccccc1)c1ccccc1` [Compound 42, 1,3-Diphenyl-1-propanone], the inhibition at 3 µg/mL (read-out: Percent Inhibition at a Specified Density (μg/ml): 3) came out at 16.3%. The inhibition at 6 µg/mL (read-out: Percent Inhibition at a Specified Density (μg/ml): 6) was found to be 49.4%. In addition, the inhibition at 9 µg/mL (read-out: Percent Inhibition at a Specified Density (μg/ml): 9) came to 75.8%.
